# Binding of CDR-mutated scFvs to a peptide of the spike HR2 region

Target peptide (SARS-CoV-2 spike, HR2 region): PDVDLGDISGINAS

Ab-14 is the parent antibody, in scFv form: VH, then a (GGGGS)3 linker, then VL. The heavy chain is unchanged in all variants.
VH: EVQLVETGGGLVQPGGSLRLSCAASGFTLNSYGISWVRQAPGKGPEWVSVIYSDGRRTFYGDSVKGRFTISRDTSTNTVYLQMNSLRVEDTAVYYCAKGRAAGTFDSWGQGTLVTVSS
VL: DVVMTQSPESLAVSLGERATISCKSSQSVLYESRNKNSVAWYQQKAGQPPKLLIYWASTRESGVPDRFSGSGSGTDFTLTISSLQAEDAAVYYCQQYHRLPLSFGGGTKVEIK

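The parent was found by panning a naive human phage display library on the peptide. Variants in AAYL50 differ from the parent at up to three CDR positions; double and triple changes were sampled at random. AlphaSeq pools MATa yeast showing the antibodies with MATalpha yeast showing the peptide. After mating in shaken culture at 30 °C for 16 h, diploids were selected and their barcode pairs sequenced. A regression on co-assayed BCL2-family reference pairs converts the normalised counts of each replicate to an apparent Kd. Mating was done three times.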

Positions count from residue 1 of the parent VL; Q96S puts S in place of Q. Only single mutants are listed, position by position. The Kd shown is the geometric mean over detected replicates; a lower Kd is a better binder. A pair that was not seen in any replicate is written "no signal"; this usually means weak binding, but a binder can also be missed. Parent in this assay: reference entry 4.4 nM, copy in this library 48 nM. Nonspecific signal, from three strains lacking the peptide, appeared in 18% of pairings of library AAYL50, centred on 15 µM (5% of these signals below 970 nM); values are not corrected for it.

Q96S: 46 nM (3 of 3 replicates).
Q96L: 990 nM (2 of 3 replicates).
Q96T: 240 nM (3 of 3 replicates).
Q96V: 2.0 µM (2 of 3 replicates).
Q96I: 44 nM (3 of 3 replicates).
Q96K: no signal (0 of 3 replicates).
Q96W: 680 nM (3 of 3 replicates).
Q96P: 870 nM (1 of 3 replicates).
Q96D: 800 nM (3 of 3 replicates).
Q96R: 100 nM (3 of 3 replicates).
Q96G: 1.2 µM (3 of 3 replicates).
Q96F: 130 nM (3 of 3 replicates).
Q96H: 4.5 nM (3 of 3 replicates).
Q96A: 20 nM (3 of 3 replicates).
Y97R: no signal (0 of 3 replicates).
Y97E: 8.5 nM (3 of 3 replicates).
Y97P: 48 nM (3 of 3 replicates).
Y97T: no signal (0 of 3 replicates).
Y97I: no signal (0 of 3 replicates).
Y97K: no signal (0 of 3 replicates).
Y97C: no signal (0 of 3 replicates).
Y97W: 140 µM (1 of 3 replicates).
Y97S: 8.5 µM (2 of 3 replicates).
Y97L: 4.6 µM (1 of 3 replicates).
Y97H: no signal (0 of 3 replicates).
Y97G: 300 nM (3 of 3 replicates).
Y97F: 54 nM (2 of 3 replicates).
Y97M: 22 nM (3 of 3 replicates).
Y97Q: 49 µM (2 of 3 replicates).
Y97A: 1.4 µM (3 of 3 replicates).
Y97N: 1.7 µM (3 of 3 replicates).
H98V: 19 nM (3 of 3 replicates).
H98R: 17 nM (3 of 3 replicates).
H98G: 48 nM (3 of 3 replicates).
H98T: 5.1 nM (3 of 3 replicates).
H98P: 10 µM (1 of 3 replicates).
H98C: 26 nM (3 of 3 replicates).
H98N: 5.1 nM (3 of 3 replicates).
H98Q: 9.6 nM (3 of 3 replicates).
H98Y: 180 nM (3 of 3 replicates).
H98M: 4.5 nM (3 of 3 replicates).
H98K: no signal (0 of 3 replicates).
H98E: 16 nM (3 of 3 replicates).
H98F: 2.5 nM (3 of 3 replicates).
H98S: 15 nM (3 of 3 replicates).

The 7 strongest on average among those seen in every replicate, once more:

changes,apparent Kd,seen in
H98F,2.5 nM,3 of 3
Q96H,4.5 nM,3 of 3
H98M,4.5 nM,3 of 3
H98N,5.1 nM,3 of 3
H98T,5.1 nM,3 of 3
Y97E,8.5 nM,3 of 3
H98Q,9.6 nM,3 of 3

Values reported by Engelhart et al. 2022, doi:10.1038/s41597-022-01779-4 (FLAb copy).